Measured values reported in ChEMBL document CHEMBL5506027, “Discovery of a Novel and Potent Cyclin-Dependent Kinase 8/19 (CDK8/19) Inhibitor for the Treatment of Cancer” (J Med Chem, 2024).

Experiments:
[1] = Selectivity ratio of IC50 for CDK5/p25NCK (unknown origin) to IC50 for CDK8/Cyclin C (unknown origin)
[2] = Selectivity ratio of IC50 for CDK2/CyclinE1 (unknown origin) to IC50 for CDK8/Cyclin C (unknown origin)
[3] = Selectivity ratio of IC50 for CDK7/CyclinH/MAT1 (unknown origin) to IC50 for CDK8/Cyclin C (unknown origin)
[4] = Selectivity ratio of IC50 for CDK1/CyclinA2 (unknown origin) to IC50 for CDK8/Cyclin C (unknown origin)
[5] = Selectivity ratio of IC50 for CDK5/p35NCK (unknown origin) to IC50 for CDK8/Cyclin C (unknown origin)
[6] = Selectivity ratio of IC50 for CDK2/CyclinA2 (unknown origin) to IC50 for CDK8/Cyclin C (unknown origin)

## FC(F)c1c(Br)c(Br)cc2c1nc(N1CCNCC1)n2C1CCOCC1
[1]
  Ratio IC50: 11.7
[2]
  Ratio IC50: 4.2
[3]
  Ratio IC50: 26.3
[4]
  Ratio IC50: 31.5
[5]
  Ratio IC50: 25.8
[6]
  Ratio IC50: 5.7
